Measurements published in ChEMBL document CHEMBL1129944, “[[(Arylpiperazinyl)alkyl]thio]thieno[2,3-d]pyrimidinone derivatives as high-affinity, selective 5-HT1A receptor ligands” (J Med Chem, 1997).

Chains of the proteins cited; added tags and fusions are not shown.
UniProt P19327, whole entry: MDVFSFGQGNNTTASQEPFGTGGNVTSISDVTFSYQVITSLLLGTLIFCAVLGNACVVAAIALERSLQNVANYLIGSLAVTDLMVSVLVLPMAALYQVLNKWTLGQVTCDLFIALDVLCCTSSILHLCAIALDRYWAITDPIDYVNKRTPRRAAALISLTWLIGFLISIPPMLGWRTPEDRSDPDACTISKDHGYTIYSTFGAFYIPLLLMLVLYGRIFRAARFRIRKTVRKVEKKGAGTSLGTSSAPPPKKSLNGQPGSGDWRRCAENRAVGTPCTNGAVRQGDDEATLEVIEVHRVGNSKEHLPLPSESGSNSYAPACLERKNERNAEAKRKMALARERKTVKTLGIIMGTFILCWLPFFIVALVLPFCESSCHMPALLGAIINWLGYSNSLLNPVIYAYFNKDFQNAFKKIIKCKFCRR

Biological target: 5-hydroxytryptamine receptor 1A (Rattus norvegicus, UniProt P19327)
Test: In vitro inhibitory concentration against radioligand [3H]8-OH-DPAT binding to 5-hydroxytryptamine 1A receptor in rat hippocampal membrane.
Format: cell membranes, Hippocampus
In short: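 Rat hippocampal membranes (male SD rats, ~150 g) were washed in 50 mM Tris-HCl pH 7.4, including 10 min at 37 °C. Incubation buffer contained 4 mM CaCl2 and 10 μM pargyline. [3H]-8-OH-DPAT 1 nM final, 30 min at 25 °C; nonspecific binding defined by 10 μM 5-HT. Filtered onto GF/B and counted; 50% inhibitory concentration from fitted curves.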

Question: How did the IC50 turn out when NCCc1c[nH]c2ccc(O)cc12 [SEROTONIN] was run?
Answer: 3 nM
